# Measured values: PubChem BioAssay AID1625 (Sanford-Burnham Center for Chemical Genomics, 2009)
# In all, about 190,000 compounds went through this assay and about 570 (0.3%) were called active. The source calls these results inconclusive, neither active nor inactive.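 How the source made its calls: active means z-score above 3 at 5 µM with at least 500 cells counted in the well; inconclusive means wells under 500 cells, flagged as cytotoxic or low count; inactive means the rest.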
# Assay: up-regulation of insulin promoter-GFP reporter – imaging, high-content screening, mouse beta cells (AID 1625)
# Conditions: MIN6 insulin promoter-GFP reporter, at 5 µM, hits give high values
row,Compound,z-score
1,O=c1c2cc([N+](=O)[O-])ccc2[nH]c2c([N+](=O)[O-])cc([N+](=O)[O-])cc12,inconclusive: -6.53
2,CC(=O)NC(SC(=S)N(C)C)C(Cl)(Cl)Cl (stereo not drawn),inconclusive: -3.67
3,CCN(CC)C(=S)SC(NC=O)C(Cl)(Cl)Cl (stereo not drawn),inconclusive: -2.57
